The numbers were not newly measured in article PMC11314561, “Design and Synthesis of Novel Aminoindazole-pyrrolo[2,3-b]pyridine Inhibitors of IKKα That Selectively Perturb Cellular Non-Canonical NF-κB Signalling” (Molecules, 2024), which cites them from elsewhere.

By UniProt entry, the sequences of proteins in these tests, tags left out.
UniProt O15111, whole entry: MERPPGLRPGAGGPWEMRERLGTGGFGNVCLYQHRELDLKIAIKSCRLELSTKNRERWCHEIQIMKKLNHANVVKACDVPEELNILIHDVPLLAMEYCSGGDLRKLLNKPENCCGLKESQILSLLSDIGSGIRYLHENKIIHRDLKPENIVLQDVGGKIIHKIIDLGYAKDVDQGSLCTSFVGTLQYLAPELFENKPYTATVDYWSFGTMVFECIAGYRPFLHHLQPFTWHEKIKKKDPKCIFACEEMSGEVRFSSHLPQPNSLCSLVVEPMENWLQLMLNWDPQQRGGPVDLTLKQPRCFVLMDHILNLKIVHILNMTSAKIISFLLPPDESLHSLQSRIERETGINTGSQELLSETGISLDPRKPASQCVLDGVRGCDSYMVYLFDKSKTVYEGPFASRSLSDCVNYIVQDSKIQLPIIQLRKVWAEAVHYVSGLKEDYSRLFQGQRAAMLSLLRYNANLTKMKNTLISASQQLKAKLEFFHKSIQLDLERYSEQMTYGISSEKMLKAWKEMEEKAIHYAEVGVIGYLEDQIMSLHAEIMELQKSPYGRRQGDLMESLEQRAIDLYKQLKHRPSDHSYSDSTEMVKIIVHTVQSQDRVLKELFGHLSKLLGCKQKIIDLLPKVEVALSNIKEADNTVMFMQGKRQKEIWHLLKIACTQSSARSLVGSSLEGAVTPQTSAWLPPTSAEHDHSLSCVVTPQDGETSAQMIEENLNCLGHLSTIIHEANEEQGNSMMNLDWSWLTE

The term Ki denotes a dissociation constant, usually derived from enzyme kinetics or from competition with a known ligand.

Each structure is given as a SMILES string.

The target in the series is IKKα (Homo sapiens, UniProt O15111). The following applies: read-out: Ki IKKα, previous hit; previous hit of the first series; cited from earlier work.

With `N#Cc1c[nH]c2nc(N)nc(-c3ccc(S(N)(=O)=O)cc3)c12`, the Ki was 80 nM.
